According to patent US20060079453A1, “Hla binding peptides and their uses” (priority 2002, published 2006):

What was measured:
Experiment in all cases: biochemical
[1] = molecular target: HLA-A*3002 (Homo sapiens, UniProt P04439, D101N/D140H/D185E/E176R/F33S/G80R/H175R/K168Q/Q94H/R138E/R41S/V100E); details: Binding affinity to A*3002 (expressed as an IC50)
[2] = molecular target: HLA-A*6802 (Homo sapiens, UniProt P04439, A269V/D140Y/D185E/E176V/E277Q/E87N/F33Y/G231S/I121R/I166T/I218V/L180W/L300P/L318F/N151K/P208A/P217A/Q86R/R138H/R169H/S129P/T345S/V36M); details: A*6802 binding affinity (expressed as an IC50)
[3] = molecular target: HLA-A*0203 (Homo sapiens, UniProt P04439, A173T/D140Y/D185E/D98H/E277Q/G131W/G231S/I119V/I121R/I166T/I218V/L180W/L300P/L318F/N151K/N90K/P208A/P217A/Q86G/Q94H/R138H/R169H/T345S); assay type: binding; details: A*0203 binding affinity (expressed as an IC50)
[4] = molecular target: HLA-A*0206 (Homo sapiens, UniProt P04439, D140Y/D185E/D98H/E176V/E277Q/F33Y/G131W/G231S/I119V/I121R/I166T/I218V/L300P/L318F/N151K/N90K/P208A/P217A/Q86G/Q94H/R138H/R169H/T345S); assay type: binding; details: A*0206 binding affinity (expressed as an IC50)

Structure (SMILES)	IC50 [1] [nM]	IC50 [2] [nM]	IC50 [3] [nM]	IC50 [4] [nM]
CC[C@H](C)[C@H](NC(=O)[C@@H](N)CCCNC(=N)N)C(=O)N[C@@H](CO)C(=O)NCC(=O)N[C@H](C(=O)N[C@@H](CC(=O)O)C(=O)N[C@@H](CCCNC(=N)N)C(=O)N[C@@H](Cc1ccc(O)cc1)C(=O)N[C@@H](Cc1ccc(O)cc1)C(=O)O)C(C)C	3	–	–	–
CC(C)C[C@H](NC(=O)[C@H](Cc1c[nH]c2ccccc12)NC(=O)[C@@H](NC(=O)[C@H](Cc1ccccc1)NC(=O)[C@H](Cc1ccccc1)NC(=O)[C@H](CC(=O)O)NC(=O)[C@H](Cc1ccc(O)cc1)NC(=O)[C@@H](NC(=O)[C@@H](N)CO)C(C)C)C(C)C)C(=O)O	–	0.86	226	10
